The numbers were not newly measured in patent publication US20120225417A1, “Methods, Compositions and Kits for the Evaluation and Preservation of Sperm” (I'Alliance Boviteq Inc., priority 2011, published 2012), which cites them from elsewhere.

Protein sequences, listed by entry. Tags and fused reporters are not part of them.
UniProt Q9Y233, whole entry, species assumed: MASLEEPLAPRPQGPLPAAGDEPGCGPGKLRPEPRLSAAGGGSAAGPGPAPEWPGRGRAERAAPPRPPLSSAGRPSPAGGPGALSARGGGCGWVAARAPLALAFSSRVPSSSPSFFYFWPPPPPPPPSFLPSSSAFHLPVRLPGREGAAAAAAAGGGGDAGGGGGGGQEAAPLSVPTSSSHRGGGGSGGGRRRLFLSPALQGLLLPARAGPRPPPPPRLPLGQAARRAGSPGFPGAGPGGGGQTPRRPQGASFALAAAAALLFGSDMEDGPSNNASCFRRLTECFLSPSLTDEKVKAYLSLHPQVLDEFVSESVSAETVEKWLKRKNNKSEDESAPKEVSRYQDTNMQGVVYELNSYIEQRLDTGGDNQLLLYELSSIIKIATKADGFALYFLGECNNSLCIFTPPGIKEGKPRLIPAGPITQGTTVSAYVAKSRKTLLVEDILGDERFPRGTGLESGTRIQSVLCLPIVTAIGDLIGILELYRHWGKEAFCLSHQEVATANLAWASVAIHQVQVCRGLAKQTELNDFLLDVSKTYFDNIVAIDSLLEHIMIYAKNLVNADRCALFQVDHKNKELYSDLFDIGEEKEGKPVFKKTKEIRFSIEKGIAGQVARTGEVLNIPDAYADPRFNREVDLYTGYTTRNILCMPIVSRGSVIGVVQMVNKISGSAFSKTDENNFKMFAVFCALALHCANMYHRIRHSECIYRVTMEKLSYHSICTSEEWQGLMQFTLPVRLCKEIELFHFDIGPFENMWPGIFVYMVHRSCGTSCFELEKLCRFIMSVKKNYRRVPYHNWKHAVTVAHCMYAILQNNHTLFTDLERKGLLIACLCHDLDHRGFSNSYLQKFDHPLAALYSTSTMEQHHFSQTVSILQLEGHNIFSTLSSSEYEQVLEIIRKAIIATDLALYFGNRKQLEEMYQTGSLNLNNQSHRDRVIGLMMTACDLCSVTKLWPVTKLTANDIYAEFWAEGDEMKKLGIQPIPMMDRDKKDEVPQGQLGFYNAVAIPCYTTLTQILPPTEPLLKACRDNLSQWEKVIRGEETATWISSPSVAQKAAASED

The series has as its target PDE10A (Homo sapiens, UniProt Q9Y233). As to conditions: estimated, reported by Strick et al.; cited from earlier work.

With `COc1ccc(Cc2nccc3cc(OC)c(OC)cc23)cc1OC` [Papaverine], the inhibition constant Ki was 30 nM.
